# Measurements from article PMC4798913 (ACS chemical biology, 2015).
# Amino acid sequences for entries named in this document (tags omitted). A change or cut given only in a name is not applied to a line headed by its entry.
# UniProt O60678: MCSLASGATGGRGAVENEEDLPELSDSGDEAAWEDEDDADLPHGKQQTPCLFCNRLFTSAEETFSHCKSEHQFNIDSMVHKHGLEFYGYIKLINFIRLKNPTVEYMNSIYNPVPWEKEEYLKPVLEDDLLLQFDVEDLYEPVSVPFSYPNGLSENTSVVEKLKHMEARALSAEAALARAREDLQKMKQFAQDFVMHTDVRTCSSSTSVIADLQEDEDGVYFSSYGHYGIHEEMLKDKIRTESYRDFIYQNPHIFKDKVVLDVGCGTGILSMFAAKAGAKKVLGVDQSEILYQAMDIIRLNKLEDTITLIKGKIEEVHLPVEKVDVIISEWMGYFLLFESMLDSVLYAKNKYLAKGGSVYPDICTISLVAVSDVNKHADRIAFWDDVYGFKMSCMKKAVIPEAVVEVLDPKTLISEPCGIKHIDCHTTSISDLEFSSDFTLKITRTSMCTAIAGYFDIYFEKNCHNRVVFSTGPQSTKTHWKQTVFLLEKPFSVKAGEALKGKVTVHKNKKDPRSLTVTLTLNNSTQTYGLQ
# Assays:
# MCF7 cells = experiment: Cell growth assay; format: cell-based; conditions: 10 μM, 10 days
# PRMT3 = PRMT3 (Homo sapiens, UniProt O60678); experiment: PRMT biochemical scintillation proximity assay; conditions: read-out: Ki PRMT3; calculated from IC50
smiles,measurement,setting,value
CC(C)Oc1ccc(-c2c[nH]cc2CN(C)CCN)cc1 [MS023],effect on cell growth (confluency),MCF7 cells,significant decrease of cell growth
same,Ki,PRMT3,55 nM
